## Antibody variant affinities, Ab-14 heavy chain, assay B

Values reported by Li et al. 2023, doi:10.1038/s41467-023-39022-2 (FLAb copy).

Binding partner: SARS-CoV-2 spike HR2 peptide, sequence PDVDLGDISGINAS.

Parent: Ab-14, a human scFv built as VH, three GGGGS repeats, VL. Only the CDRs of the heavy chain vary.
VH: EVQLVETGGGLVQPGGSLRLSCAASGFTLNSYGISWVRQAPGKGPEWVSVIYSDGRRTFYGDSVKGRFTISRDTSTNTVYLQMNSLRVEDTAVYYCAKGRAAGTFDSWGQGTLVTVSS
VL: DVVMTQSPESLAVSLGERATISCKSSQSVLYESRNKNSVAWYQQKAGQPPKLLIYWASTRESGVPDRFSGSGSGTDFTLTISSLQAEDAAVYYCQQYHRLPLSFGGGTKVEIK

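The parent was found by panning a naive human phage display library on the peptide. The variants were designed computationally from a first round of random CDR variants and then made and measured. Their group label is 14H_En_Gibbs (En: ensemble of fine-tuned language models; Gibbs: Gibbs sampling). AlphaSeq pools MATa yeast showing the antibodies with MATalpha yeast showing the peptide. Binding brings cells together so that they mate, and sequencing counts the barcode pairs among the diploids. Scores were corrected for input abundance and mapped to Kd with protein pairs of known affinity run in the same pool. The assay was run in six technical replicates.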

The whole VH of each variant is written out. The read-out is the apparent dissociation constant on a log10 scale (nM): the lower, the stronger. A pair that was not seen in that replicate is written "n.d."; this usually means weak binding, but a binder can also be missed. Background: pairings of all heavy chain designs with three empty control strains gave a value in 1% of cases (median 2.08, 5th percentile 0.84). Values in that range, when seen in few replicates, are hard to tell from nonspecific mating. Also given: how often the same scFv was detected with the empty control strains, with their mean in brackets.

{"VH": "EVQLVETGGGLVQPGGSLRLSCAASGDGLKEMGISWVRQAPGKGPEWVSVIYADGMREAYVKDVKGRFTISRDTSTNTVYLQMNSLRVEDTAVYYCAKGQTAGTFVLWGQGTLVTVSS", "log10 Kd, replicates": "n.d. n.d. n.d. n.d. n.d. n.d.", "control signals": "0/18"}
{"VH": "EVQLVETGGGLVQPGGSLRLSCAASGKSVDEYGISWVRQAPGKGPEWVSVIYADGMRAEYQDSVKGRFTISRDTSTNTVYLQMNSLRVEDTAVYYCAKGHTGGDVFVWGQGTLVTVSS", "log10 Kd, replicates": "n.d. n.d. n.d. n.d. n.d. n.d.", "control signals": "1/18 (2.62)"}
{"VH": "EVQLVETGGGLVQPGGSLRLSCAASGKSLDEYGISWVRQAPGKGPEWVSVIYADGLRKVYANSVKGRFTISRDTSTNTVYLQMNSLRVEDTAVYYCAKGQFDDAMDLWGQGTLVTVSS", "log10 Kd, replicates": "n.d. n.d. n.d. n.d. 3.88 n.d.", "control signals": "0/18"}
{"VH": "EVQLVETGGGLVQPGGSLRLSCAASGFDLEKYGISWVRQAPGKGPEWVSVIYADGRRSVYADNVKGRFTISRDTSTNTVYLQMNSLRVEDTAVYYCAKGMLGATNGFWGQGTLVTVSS", "log10 Kd, replicates": "n.d. n.d. n.d. 2.33 n.d. n.d.", "control signals": "1/18 (2.04)"}
{"VH": "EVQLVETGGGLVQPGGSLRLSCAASGFDIDEYGISWVRQAPGKGPEWVSVIYADGKRQALIDAVKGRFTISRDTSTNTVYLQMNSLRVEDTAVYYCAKGTLSGTFIAWGQGTLVTVSS", "log10 Kd, replicates": "n.d. n.d. n.d. n.d. n.d. n.d.", "control signals": "0/18"}
{"VH": "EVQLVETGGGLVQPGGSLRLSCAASGFELQEYGISWVRQAPGKGPEWVSVIYADGMRTAYSDNVKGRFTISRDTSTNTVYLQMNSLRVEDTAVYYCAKGDARGIFHVWGQGTLVTVSS", "log10 Kd, replicates": "n.d. n.d. n.d. 2.00 n.d. n.d.", "control signals": "0/18"}
{"VH": "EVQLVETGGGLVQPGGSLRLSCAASGFQIDEYGISWVRQAPGKGPEWVSVIYADGKRSMYADKVKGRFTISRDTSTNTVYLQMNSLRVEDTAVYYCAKGVDADTMMDWGQGTLVTVSS", "log10 Kd, replicates": "n.d. n.d. n.d. n.d. n.d. n.d.", "control signals": "0/18"}
{"VH": "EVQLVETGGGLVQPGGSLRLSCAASGFDLQEYGISWVRQAPGKGPEWVSVIYADGARKSYTNSVKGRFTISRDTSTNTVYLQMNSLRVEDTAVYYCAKGVVGGQMDVWGQGTLVTVSS", "log10 Kd, replicates": "n.d. n.d. n.d. n.d. n.d. n.d.", "control signals": "0/18"}
{"VH": "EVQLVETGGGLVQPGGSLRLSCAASGFDLNEYGVSWVRQAPGKGPEWVSVIYADGVRSAYTSSVKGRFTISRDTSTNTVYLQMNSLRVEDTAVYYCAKGVGNVDIMLWGQGTLVTVSS", "log10 Kd, replicates": "n.d. n.d. n.d. n.d. n.d. n.d.", "control signals": "0/18"}
{"VH": "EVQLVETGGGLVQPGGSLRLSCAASGFDLEEYGISWVRQAPGKGPEWVSVIYADGLRQYYKDNFKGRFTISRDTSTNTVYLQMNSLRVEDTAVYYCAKGWNDGTIAVWGQGTLVTVSS", "log10 Kd, replicates": "n.d. 5.05 n.d. n.d. n.d. n.d.", "control signals": "1/18 (2.43)"}
{"VH": "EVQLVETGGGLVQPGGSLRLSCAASGDNINEYGISWVRQAPGKGPEWVSVIYADGLRKQYAENVKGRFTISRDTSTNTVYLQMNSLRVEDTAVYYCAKGYLAGTLDEWGQGTLVTVSS", "log10 Kd, replicates": "n.d. n.d. n.d. n.d. 0.59 n.d.", "control signals": "0/18"}
{"VH": "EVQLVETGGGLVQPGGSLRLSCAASGRDIEEYGISWVRQAPGKGPEWVSVIYADGVRTVYHDSVKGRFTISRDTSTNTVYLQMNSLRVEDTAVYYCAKGQVAGFFITWGQGTLVTVSS", "log10 Kd, replicates": "n.d. n.d. n.d. n.d. n.d. n.d.", "control signals": "0/18"}
{"VH": "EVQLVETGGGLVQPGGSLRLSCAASAFNLEDYGISWVRQAPGKGPEWVSVIYADGVRASYVESVKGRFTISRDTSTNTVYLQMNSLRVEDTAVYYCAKGGIAGTFVIWGQGTLVTVSS", "log10 Kd, replicates": "0.40 0.21 0.45 0.02 0.39 0.21", "control signals": "0/18"}
{"VH": "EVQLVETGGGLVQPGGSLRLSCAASGFNLEEYGISWVRQAPGKGPEWVSVIYADGFRAAYQQKVKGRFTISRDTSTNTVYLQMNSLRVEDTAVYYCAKGQDGLVGMDWGQGTLVTVSS", "log10 Kd, replicates": "n.d. n.d. n.d. n.d. n.d. n.d.", "control signals": "0/18"}
{"VH": "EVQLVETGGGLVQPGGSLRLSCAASGFDLEEYGISWVRQAPGKGPEWVSVIYADGRRTAYADNVKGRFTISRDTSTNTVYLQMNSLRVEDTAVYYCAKGMSGADLMFWGQGTLVTVSS", "log10 Kd, replicates": "1.48 1.87 0.20 0.90 1.31 1.19", "control signals": "0/18"}
{"VH": "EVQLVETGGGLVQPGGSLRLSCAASGDVLDEYGISWVRQAPGKGPEWVSVIYADGRRTFYTQDVKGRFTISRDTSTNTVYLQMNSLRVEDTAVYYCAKGGKAGSLSVWGQGTLVTVSS", "log10 Kd, replicates": "n.d. n.d. n.d. n.d. n.d. n.d.", "control signals": "0/18"}
{"VH": "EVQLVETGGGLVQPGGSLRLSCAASGFDLQEYGISWVRQAPGKGPEWVSVIYADGQRANAVSQVKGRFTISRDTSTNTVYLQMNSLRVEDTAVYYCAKGEQAGGFVLWGQGTLVTVSS", "log10 Kd, replicates": "n.d. n.d. n.d. n.d. n.d. n.d.", "control signals": "0/18"}
{"VH": "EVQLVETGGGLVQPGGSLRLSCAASGFDINEYGISWVRQAPGKGPEWVSVIYADGMRKAYVQQVKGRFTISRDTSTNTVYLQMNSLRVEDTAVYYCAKGQNLGDVEVWGQGTLVTVSS", "log10 Kd, replicates": "n.d. n.d. n.d. n.d. n.d. n.d.", "control signals": "0/18"}
{"VH": "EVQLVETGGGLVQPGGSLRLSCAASGFSLDEYGISWVRQAPGKGPEWVSVIYADGLRTQYSNKVKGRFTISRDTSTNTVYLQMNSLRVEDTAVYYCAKGLQGFFFDQWGQGTLVTVSS", "log10 Kd, replicates": "n.d. n.d. n.d. n.d. n.d. n.d.", "control signals": "1/18 (2.93)"}
{"VH": "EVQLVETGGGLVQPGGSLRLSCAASGFDIQDYGISWVRQAPGKGPEWVSVIYADGSRTAYTNSVKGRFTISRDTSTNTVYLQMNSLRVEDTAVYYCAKGVQGASYDLWGQGTLVTVSS", "log10 Kd, replicates": "n.d. n.d. 2.27 n.d. n.d. n.d.", "control signals": "2/18 (2.01)"}
{"VH": "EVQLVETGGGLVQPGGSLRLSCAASGFDLEKYGISWVRQAPGKGPEWVSVIYADGIRKEYDQSVKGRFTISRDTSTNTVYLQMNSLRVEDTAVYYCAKGQMAGAFTVWGQGTLVTVSS", "log10 Kd, replicates": "n.d. n.d. 1.92 n.d. n.d. n.d.", "control signals": "0/18"}

A selection of 2 entries from above:

{"VH": "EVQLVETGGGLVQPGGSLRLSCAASGFNLEEYGISWVRQAPGKGPEWVSVIYADGFRAAYQQKVKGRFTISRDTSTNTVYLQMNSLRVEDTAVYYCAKGQDGLVGMDWGQGTLVTVSS", "log10 Kd, replicates": "n.d. n.d. n.d. n.d. n.d. n.d.", "control signals": "0/18"}
{"VH": "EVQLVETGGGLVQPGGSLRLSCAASGFDLQEYGISWVRQAPGKGPEWVSVIYADGQRANAVSQVKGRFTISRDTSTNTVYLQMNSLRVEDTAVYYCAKGEQAGGFVLWGQGTLVTVSS", "log10 Kd, replicates": "n.d. n.d. n.d. n.d. n.d. n.d.", "control signals": "0/18"}

Values of this round are not directly comparable with the first-round values of the same sequences. The authors averaged sequences with at least three values out of six and counted those with two or fewer as poor binders.